Literature values as cited in patent publication US20080166411A1, “Injectable Depot Formulations And Methods For Providing Sustained Release Of Poorly Soluble Drugs Comprising Nanoparticles” (Pfizer Inc, priority 2006, published 2008).

Details: orally administered

insulin
fraction of the total dose bioavailable: < 10%
